{"sequences": {"note": "Chains of the proteins cited; added tags and fusions are not shown.", "UniProt P34981, whole entry": "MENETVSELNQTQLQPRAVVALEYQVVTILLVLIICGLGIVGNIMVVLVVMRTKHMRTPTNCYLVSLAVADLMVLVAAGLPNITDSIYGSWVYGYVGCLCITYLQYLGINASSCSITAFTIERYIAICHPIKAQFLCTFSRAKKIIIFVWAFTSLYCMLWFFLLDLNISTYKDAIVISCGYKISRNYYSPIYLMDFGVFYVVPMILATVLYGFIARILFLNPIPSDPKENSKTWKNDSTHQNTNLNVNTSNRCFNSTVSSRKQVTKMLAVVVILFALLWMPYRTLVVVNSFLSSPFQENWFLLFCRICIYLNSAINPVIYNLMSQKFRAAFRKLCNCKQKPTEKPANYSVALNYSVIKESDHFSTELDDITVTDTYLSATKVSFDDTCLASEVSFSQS"}, "source": "PubChem BioAssay AID493084", "about": "(National Center for Advancing Translational Sciences (NCATS), 2011)", "note": "Only a part is listed here, and it is no random draw. Activity calls are given as the source filed them. Rule as the data show it: active = activation above about 30%; inactive = the rest.", "data": [{"target": "Thyrotropin-releasing hormone receptor (Homo sapiens) (UniProt P34981)", "assay": "qHTS for Small Molecule Agonists and Allosteric Enhancers of Human TRH Receptor: Primary Screen for Agonists; also: 0% is about no effect.", "conditions": "TRHR cells, calcium flux fluo-8, FDSS agonist mode; at 2 µM; active compounds read high", "summary_of_the_method": "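Read-out: compound-evoked intracellular calcium rise in TRHR cells, fluo-8 dye, kinetic FDSS fluorescence at 1 s/cycle following a 10-cycle baseline. Cells cultured overnight before dye loading (30 min–1.5 h, RT).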", "values": [{"smiles": "O=C(OC1CN2CCC1CC2)C1c2ccccc2C=Cc2ccccc21", "note": "(centres undefined)", "activation": "inactive: 1.09%"}, {"smiles": "O=C(O)c1cccc(Nc2c([N+](=O)[O-])cc([N+](=O)[O-])cc2[N+](=O)[O-])c1", "activation": "inactive: -0.835%"}, {"smiles": "O=C(NCC1(N2CCOCC2)CCCCC1)c1cc(Br)ccc1Cl", "activation": "inactive: -0.906%"}, {"smiles": "COc1ccc(C(=O)NCC2(N3CCOCC3)CCCCC2)cc1OC", "activation": "inactive: -0.0088%"}, {"smiles": "CCC(CO)(C(=O)OC1CN2CCC1CC2)c1ccccc1", "note": "(centres undefined)", "activation": "inactive: 0.417%"}, {"smiles": "COc1cc(C(=O)NCC2(N3CCOCC3)CCCCC2)cc(OC)c1OC", "activation": "inactive: -0.0121%"}, {"smiles": "COc1cc(OC)cc(C(=O)NCC2(N3CCOCC3)CCCCC2)c1", "activation": "inactive: 0.018%"}, {"smiles": "COc1cccc(C(=O)N(c2cc(C)cc(C)c2)C2CCN(C(=O)OC(C)(C)C)CC2)c1", "activation": "inactive: -0.475%"}, {"smiles": "CCCOc1ccc(C)cc1CN(CCCl)CCCl", "activation": "inactive: -1.38%"}, {"smiles": "CN1CCC(Nc2ccc(Cl)cc2)CC1", "activation": "inactive: 0.499%"}, {"smiles": "CCOc1ncccc1C(=O)NCC1(N2CCOCC2)CCCCC1", "activation": "inactive: -1.03%"}, {"smiles": "CN1CCC(Nc2ccc(F)c(Cl)c2)CC1", "activation": "inactive: 3.12%"}, {"smiles": "CCCOc1ccc(C(=O)NCC2(N(C)C)CCCCC2)cc1", "activation": "inactive: 0.836%"}, {"smiles": "CC(C)(C)OC(=O)N1CCC(Nc2ccccc2)CC1", "activation": "inactive: 0.125%"}, {"smiles": "O=C(O)C1(Nc2ccccc2)CCN(Cc2ccccc2)CC1", "activation": "inactive: -0.141%"}, {"smiles": "CCN1CCC(Nc2cccc(F)c2)CC1", "activation": "inactive: 0.544%"}, {"smiles": "O=C(NCC1(N2CCCCC2)CCCCC1)c1ccco1", "activation": "inactive: 0.811%"}, {"smiles": "CC(C)(C)c1ccc(C(=O)NCC2(N3CCOCC3)CCCCC2)cc1", "activation": "inactive: -0.197%"}, {"smiles": "CN(C)c1ccc(C(=O)NCC2(N3CCCCC3)CCCCC2)cc1", "activation": "inactive: 0.0413%"}, {"smiles": "Cc1ccccc1C(=O)NCC1(N(C)C)CCCCC1", "activation": "inactive: 0.876%"}, {"smiles": "COc1cc(OC)cc(C(=O)NCC2(N3CCCCC3)CCCCC2)c1", "activation": "inactive: -0.833%"}, {"smiles": "CN(C)C1(CNC(=O)c2ccc(C(C)(C)C)cc2)CCCCC1", "activation": "inactive: 1.15%"}, {"smiles": "Cc1ccc(C(=O)NCC2(N3CCCCC3)CCCCC2)o1", "activation": "inactive: 0.0655%"}, {"smiles": "Fc1ccccc1NC1CCN(Cc2ccccc2)CC1", "activation": "inactive: -0.372%"}]}]}
